# Yeast mating assay B: variants of the scFv Ab-14

Values reported by Li et al. 2023, doi:10.1038/s41467-023-39022-2 (FLAb copy).

Binding partner: SARS-CoV-2 spike HR2 peptide, sequence PDVDLGDISGINAS.

Ab-14 is the parent antibody, in scFv form: VH, then a (GGGGS)3 linker, then VL. The light chain is unchanged in all variants.
VH: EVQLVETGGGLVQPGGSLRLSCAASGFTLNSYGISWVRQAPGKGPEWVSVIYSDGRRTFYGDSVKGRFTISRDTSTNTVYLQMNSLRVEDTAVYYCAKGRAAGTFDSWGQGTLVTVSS
VL: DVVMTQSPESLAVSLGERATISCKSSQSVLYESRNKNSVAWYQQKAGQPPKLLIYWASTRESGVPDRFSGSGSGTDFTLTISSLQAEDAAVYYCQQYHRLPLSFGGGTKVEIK

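The variants were designed computationally from a first round of random CDR variants and then made and measured. Several design methods are mixed in this list. The scFvs were displayed on barcoded MATa yeast, the peptide on MATalpha yeast. Pairs that bind mate more often; barcode pairs of the diploids are counted by sequencing. Scores were corrected for input abundance and mapped to Kd with protein pairs of known affinity run in the same pool. There are six technical replicates.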

Sequences are complete VH domains. Variants here have at most six changes. The Kd shown is the geometric mean over detected replicates; a lower Kd is a better binder. "nd" marks a missing value. The strain was present, yet no cells mated with the target were sequenced in any replicate, which points to weak or no binding. Entries are sorted by rising average, undetected variants last.

The variant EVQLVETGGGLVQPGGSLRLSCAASGFSLNKYGISWVRQAPGKGPEWVSVIYSDGRRTFYGDSVKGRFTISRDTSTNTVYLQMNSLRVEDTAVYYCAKGREAGTFDSWGQGTLVTVSS gave 220 pM (6 of 6 replicates). The variant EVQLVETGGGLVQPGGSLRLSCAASGFDLNSYGISWVRQAPGKGPEWVSVIYSDGRRTAYGDSVKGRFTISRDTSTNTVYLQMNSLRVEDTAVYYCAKGRLAGTFDSWGQGTLVTVSS showed 330 pM (5 of 6 replicates). For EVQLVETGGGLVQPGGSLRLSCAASGFSLNEYGISWVRQAPGKGPEWVSVIYSDGRRTFYMDSVKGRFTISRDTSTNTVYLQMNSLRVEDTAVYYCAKGRQAGTFDSWGQGTLVTVSS, the assay gave 1.8 nM (6 of 6 replicates). The variant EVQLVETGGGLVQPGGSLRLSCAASGFELNSYGISWVRQAPGKGPEWVSVIYSDGRRTFYLDSVKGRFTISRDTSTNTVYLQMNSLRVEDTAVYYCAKGQTAGTFDSWGQGTLVTVSS showed 2.7 nM (6 of 6 replicates). The variant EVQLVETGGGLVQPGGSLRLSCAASGYTLNSYGISWVRQAPGKGPEWVSVIYADGRRTFYGDSVKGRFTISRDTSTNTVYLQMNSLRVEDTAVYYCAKGRAAGTFSVWGQGTLVTVSS showed 2.9 nM (6 of 6 replicates).

The variant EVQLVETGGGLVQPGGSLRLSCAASGFDLNSYGISWVRQAPGKGPEWVSVIYADGRRTFYGDSVKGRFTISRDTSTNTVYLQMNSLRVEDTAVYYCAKGRLAGVFDSWGQGTLVTVSS gave 3.6 nM (6 of 6 replicates). For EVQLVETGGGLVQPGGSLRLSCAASGFELNSYGISWVRQAPGKGPEWVSVIYSDGRRTFYGDSVKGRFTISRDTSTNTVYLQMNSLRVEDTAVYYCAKGREAGTFDAWGQGTLVTVSS, the assay gave 4.4 nM (5 of 6 replicates). With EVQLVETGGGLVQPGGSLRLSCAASGFPLNSYGISWVRQAPGKGPEWVSVIYSDGRRTFYGDEVKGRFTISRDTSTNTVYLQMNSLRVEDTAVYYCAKGRFAGTFDYWGQGTLVTVSS the result was 5.7 nM (1 of 6 replicates). With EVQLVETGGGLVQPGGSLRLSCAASGFTLNSYGISWVRQAPGKGPEWVSVIYSDGLRTFYADSVKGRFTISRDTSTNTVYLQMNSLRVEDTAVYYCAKGSEAGTFDSWGQGTLVTVSS the result was 5.9 nM (6 of 6 replicates). For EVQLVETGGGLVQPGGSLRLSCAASGFTLNSYGISWVRQAPGKGPEWVSVIYADGRRTFYGDRVKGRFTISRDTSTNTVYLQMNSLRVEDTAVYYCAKGRAAGTFDSWGQGTLVTVSS, the assay gave 8.7 nM (6 of 6 replicates).

With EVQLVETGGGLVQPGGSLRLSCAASGFTLYEYGISWVRQAPGKGPEWVSVIYSDGRRTFYGDSVKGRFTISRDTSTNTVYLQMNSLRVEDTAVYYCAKGRAAGTFDKWGQGTLVTVSS the result was 9.3 nM (6 of 6 replicates). The variant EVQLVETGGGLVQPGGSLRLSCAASGFTLNEYGISWVRQAPGKGPEWVSVIYSDGRRTFYDDSVKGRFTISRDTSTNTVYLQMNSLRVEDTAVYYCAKGRFAGTFDTWGQGTLVTVSS gave 12 nM (5 of 6 replicates). The variant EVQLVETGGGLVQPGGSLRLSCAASGFDLNSYGISWVRQAPGKGPEWVSVIYSDGRRTFYADSVKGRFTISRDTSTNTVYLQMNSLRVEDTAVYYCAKGDAAGTFDSWGQGTLVTVSS showed 20 nM (6 of 6 replicates). The variant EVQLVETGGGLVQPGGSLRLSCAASGFTLNSYGISWVRQAPGKGPEWVSVIYSDGRRTAYSDSVKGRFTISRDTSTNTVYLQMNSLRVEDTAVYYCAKGRAGGTFDSWGQGTLVTVSS showed 52 nM (6 of 6 replicates). The variant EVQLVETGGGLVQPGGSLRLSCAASGETLRSYGISWVRQAPGKGPEWVSVIYSDGRRTFISDSVKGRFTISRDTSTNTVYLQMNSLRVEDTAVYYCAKGRAAGTFDSWGQGTLVTVSS gave 53 nM (2 of 6 replicates).

For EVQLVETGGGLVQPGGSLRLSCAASGFTLNSYGISWVRQAPGKGPEWVSVIYSDGMRTAYDDSVDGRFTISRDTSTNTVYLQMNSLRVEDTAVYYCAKGRSAGTFDSWGQGTLVTVSS, the assay gave 690 nM (4 of 6 replicates). The variant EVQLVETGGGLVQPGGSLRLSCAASGFTLMSYGISWVRQAPGKGPEWVSVIYSDGRRTMYGDDVKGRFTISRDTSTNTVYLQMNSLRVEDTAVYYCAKGRNAGTFSSWGQGTLVTVSS showed 1.1 µM (2 of 6 replicates). The variant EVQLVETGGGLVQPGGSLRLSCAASGFSLNSYGISWVRQAPGKGPEWVSVIYSDGRRTFYGDNVKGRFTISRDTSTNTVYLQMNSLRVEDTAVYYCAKGEAAGTFDSWGQGTLVTVSS showed nd (0 of 6 replicates). With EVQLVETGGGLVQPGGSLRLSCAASGFTLNEYGISWVRQAPGKGPEWVSVIYSDGRRTFYGDRVKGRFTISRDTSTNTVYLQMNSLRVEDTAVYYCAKMRAAVTFDQWGQGTLVTVSS the result was nd (0 of 6 replicates). For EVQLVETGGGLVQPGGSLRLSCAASGFTLSSYGISWVRQAPGKGPEWVSVIYSDGRRTFYGDSVKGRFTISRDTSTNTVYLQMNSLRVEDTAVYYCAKGRAALTFDSWGQGTLVTVSS, the assay gave nd (0 of 6 replicates).

The variant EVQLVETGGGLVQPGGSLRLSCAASGFTLLSYGISWVRQAPGKGPEWVSVIYADGRRTFYGDSVKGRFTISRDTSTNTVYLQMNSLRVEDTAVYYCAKGKAAGTFDSWGQGTLVTVSS gave nd (0 of 6 replicates). With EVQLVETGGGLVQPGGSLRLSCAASGFTLNEYGISWVRQAPGKGPEWVSVIRSDGRRTFYTDSVKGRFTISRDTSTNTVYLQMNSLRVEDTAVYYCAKGRFAGTFSSWGQGTLVTVSS the result was nd (0 of 6 replicates). The variant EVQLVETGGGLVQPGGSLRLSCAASGFTLNSYGISWVRQAPGKGPEWVSVIYSDGQRTFYGDSVKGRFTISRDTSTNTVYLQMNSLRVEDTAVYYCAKGRAAGAWDSWGQGTLVTVSS gave nd (0 of 6 replicates). The variant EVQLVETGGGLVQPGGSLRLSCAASGFTLNSYGISWVRQAPGKGPEWVSVIYSDGRRTFYNDSVKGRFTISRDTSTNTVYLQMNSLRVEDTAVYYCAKGRAAGTFESWGQGTLVTVSS gave nd (0 of 6 replicates).

Picked from the list: the 2 lowest averages where every replicate gave a value.

With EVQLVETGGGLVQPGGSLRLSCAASGFSLNKYGISWVRQAPGKGPEWVSVIYSDGRRTFYGDSVKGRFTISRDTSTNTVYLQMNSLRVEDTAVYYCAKGREAGTFDSWGQGTLVTVSS the result was 220 pM (6 of 6 replicates).
With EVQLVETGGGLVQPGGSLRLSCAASGFSLNEYGISWVRQAPGKGPEWVSVIYSDGRRTFYMDSVKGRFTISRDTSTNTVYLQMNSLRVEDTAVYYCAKGRQAGTFDSWGQGTLVTVSS the result was 1.8 nM (6 of 6 replicates).

A sequence measured in both rounds can read differently, since the two assays cover different ranges. The authors averaged sequences with at least three values out of six and counted those with two or fewer as poor binders. The parent sequence was in this pool as ten entries: three were never detected, three once, and four in most replicates, with averages from 2.2 nM to 240 nM. Three control strains display no target. For all heavy chain designs, 1% of the pairings with them gave a signal, with a median of 120 nM and one signal in twenty below 7.0 nM, so weak values seen in few replicates may be background.